Data reported in patent US6911220B1, “Allogeneic and xenogeneic transplantation” (The General Hospital Corporation, priority 1992, dated 2005).

Tested on: renal allografts in cynomolgus monkeys
Experiment: Renal allografts in cynomolgus monkeys with short course of high dose cyclosporine
Type: in vivo, cynomolgus monkey
Details: administered on day 8, 9, or 10 of cyclosporine A treatment
Source text: “Short course of a help reducing agent”, as used herein, means a transitory non-chronic course of treatment. The treatment should begin before or at about the time of transplantation of the graft. Alternatively, the treatment can begin before or at about the time of the recipient's first exposure to donor antigens. Optimally, the treatment lasts for a time which is approximately equal to or less than the period required for mature T cells of the recipient species to initiate rejection of an antigen after first being stimulated by the antigen. The duration of the treatment can be extended to a time approximately equal to or less than two, three, four, five, or ten times, the period required for a mature T cell of the recipient species to initiate rejection of an antigen after first being stimulated by the antigen. The duration will usually be at least equal to the time required for mature T cells of the recipient species to initiate rejection of an antigen after first being stimulated by the antigen.
This work is discussed in more detail below.
Animals. Cynomolgus monkeys were purchased from Charles River Research Laboratories. The animals were quarantined, tested for a full battery of pathogens, and then housed in environmentally controlled rooms in strict conformance to the N.I.H. Guide for Care and use of Laboratory Animals, in an AAALAC accredited facility.
Typing. […]

For “IL-2: cytokine administered during cyclosporine A treatment”, the “effect on transplanted tissue” value was “rejection of the transplanted tissue”.
